We go through 4 compounds from paper PMC9340770 (2022).

In assay [1] the test system is phosphorylated ERK1/2 (pERK) in MKN1 cells. Nature of the assay: cells. It counts as cell-based. To be noted: Homo sapiens, MKN-1, read-out: MKN1 Cell IC50.
The target in assay [2] is T1, recombinant human SOS1 polypeptide (Homo sapiens, UniProt Q07889).
T1 sequence (Q07889 560-1049): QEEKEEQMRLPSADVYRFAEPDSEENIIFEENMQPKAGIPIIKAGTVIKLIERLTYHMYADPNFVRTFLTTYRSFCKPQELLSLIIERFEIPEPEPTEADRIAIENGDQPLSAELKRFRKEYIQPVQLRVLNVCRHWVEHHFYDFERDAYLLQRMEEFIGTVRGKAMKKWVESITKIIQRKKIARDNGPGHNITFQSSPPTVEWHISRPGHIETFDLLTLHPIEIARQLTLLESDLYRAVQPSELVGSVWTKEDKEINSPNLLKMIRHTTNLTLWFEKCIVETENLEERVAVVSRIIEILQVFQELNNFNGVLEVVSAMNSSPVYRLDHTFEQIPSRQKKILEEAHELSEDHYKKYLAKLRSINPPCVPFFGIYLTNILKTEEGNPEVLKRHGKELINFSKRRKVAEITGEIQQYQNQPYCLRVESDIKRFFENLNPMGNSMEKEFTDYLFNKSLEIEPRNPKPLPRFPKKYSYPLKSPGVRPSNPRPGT
To be noted: read-out: SOS1 Binding Ki.

Where two headings read alike, the source gives them in different places.

Consider `Cc1c([C@@H](C)Nc2nnc(C)c3ccc(N4CCN(C)C(=O)C4)cc23)cccc1C(F)(F)F` [Compound 17], for which the IC50 – broadly, the concentration that inhibits the measured activity by half – in assay [1] came to 74 nM. Further, in assay [2] (HTRF displacement assay), the Ki – broadly, the equilibrium dissociation constant of an inhibitor or competing ligand from its target – turned out to be 0.43 nM. With `Cc1c([C@@H](C)Nc2nnc(N(C)C)c3ccc(N4CCNCC4)cc23)cccc1C(F)(F)F` [Compound 20], in assay [1], the IC50 is 176 nM. For the same compound, the Ki in assay [2] (HTRF displacement assay) came to 1.1 nM. In the case of `Cc1c([C@@H](C)Nc2nnc(C)c3cnc(N4CCOCC4)cc23)cccc1C(F)(F)F` [Compound 24], in assay [2] (HTRF displacement assay), the Ki is 0.91 nM.

Turning to `Cc1c(C#N)cccc1[C@@H](C)Nc1nnc(C)c2cc(C(F)(F)F)c(N3CCOCC3)cc12` [Compound 38], in assay [1], the IC50 stood at 779 nM. The Ki in assay [2] worked out at 95 nM.
